The nature of the data set: Powder dissolution profiling (intrinsic dissolution rate and apparent solubility) in PhB 6.5 and FeSSIF pH 6.5. To be noted: for IDR assay 1 / IDR assay 2: triplicate; for IDR assay 1 + 2: assays 1 and 2 combined. The protocol: Phosphate buffer pH 6.5 (PhB 6.5) was prepared according to a protocol by Galia and co-workers (Galia, E., et al. Evaluation of various dissolution media for predicting in vivo performance of class I and II drugs. Pharm Res 15, pp. 698-705 (1998)). Briefly, 1000 mL of […] Na2HPO4 buffer pH 6.5 was prepared by dissolving 3.95 g Na2HPO4xH2O, 6.19 g NaCl and 0.42 g NaOH in a volumetric flask by adding purified water. The pH was adjusted to pH to 6.5 by titration with 0.5 M NaOH and the volume was adjusted to 1000 mL with purified water. This buffer was sterile filtered and thereafter stored in refrigerator. Fed state simulated intestinal fluid (FeSSIF pH 6.5) was prepared fresh on the day of the experiment by dissolving 1.12 g of Na-taurocholate/lecithin powder (ePhares, Switzerland) in 100 mL PhB ((Galia, E., et al. Evaluation of various dissolution media for predicting in vivo performance of class I and II drugs. Pharm Res 15, pp. 698-705 (1998)). The media was stirred and preheated to 37±1° C. resulting in clear solution of pH 6.5 which contained a mixed micelle system of 15 mM taurocholate and 3.75 mM lecithin.
Dissolution rate and apparent solubility was measured with the pDISS Profiler™ (pION INC, MA, USA) from 0.3-1.3 mg compound weighed into the vial to which the preheated (37° C.) dissolution medium was added. […] Each UV probe was calibrated with its own standard curve prior to the experiment. The obtained results were analysed with the software accompanying the pDISS equipment.
The detailed procedure of the powder dissolution experiments, including the theoretical background, can be found in Avdeef, A., Tsinman, K., Tsinman, O., Sun, N. & Voloboy, D. Miniaturization of powder dissolution measurement and estimation of particle size. Chem Biodivers 6, 1796-1811 (2009); in Fagerberg, J. H., et al. Dissolution Rate and Apparent Solubility of Poorly Soluble Drugs in Biorelevant Dissolution Media. Mol Pharm 7, 1419-1430, (2010); and in Tsinman, K., Avdeef, A., Tsinman, O. & Voloboy, D. Powder dissolution method for estimating rotating disk intrinsic dissolution rates of low solubility drugs. Pharm Res 26, 2093-2100 (2009).

Structures are written as SMILES.

As to `COc1cc([C@@H]2c3cc4c(cc3[C@H](O)[C@H]3COC(=O)[C@@H]23)OCO4)cc(OC)c1OC` [polymorph B, picropodophyllin], the “IDR assay 1” value reads like this: (FeSSIF pH 6.5, 37° C., assay time polymorph B 16 hours, polymorph C 1.3 hours, listed as B) 2.45 ± 0.05 μg/min/cm^2; (PhB 6.5, 37° C., assay time polymorph B 19 hours, polymorph C 1.7 hours, mean ± SD, listed as B) 1.12 ± 0.02 μg/min/cm^2.
With `COc1cc([C@@H]2c3cc4c(cc3[C@H](O)[C@H]3COC(=O)[C@@H]23)OCO4)cc(OC)c1OC` [polymorph C, picropodophyllin], the “IDR assay 2” value (FeSSIF pH 6.5, 37° C., assay time 25 hours) was 1.29 ± 0.09 μg/min/cm^2 and the “IDR assay 2” value (PhB 6.5, 37° C., assay time 29 hours (value obtained after 50 minutes), mean ± SD) is 0.56 ± 0.05 μg/min/cm^2. Further, the “IDR assay 1” value runs as follows: (FeSSIF pH 6.5, 37° C., assay time polymorph B 16 hours, polymorph C 1.3 hours, listed as C) 1.24 ± 0.02 μg/min/cm^2; (PhB 6.5, 37° C., assay time polymorph B 19 hours, polymorph C 1.7 hours, mean ± SD, listed as C) 0.57 ± 0.03 μg/min/cm^2. Also, the “IDR assay 1 + 2” value was 1.23 ± 0.11 μg/min/cm^2 (FeSSIF pH 6.5, 37° C.) and 0.57 ± 0.03 μg/min/cm^2 (PhB 6.5, 37° C., mean ± SD).

Values taken from patent US9314525B2, “Picropodophyllin polymorph C and its use in cancer therapy” (Axelar AB, priority 2010, dated 2016).
